Shown are actives, neighbours in structure and some others; about 3.7% of the full set was active somewhere.
miR-21 reporter: raises the signal of a miR-21 reporter | Potency, µM (doses to about 38.3 µM) | HeLa miR-21 FLuc reporter, luciferase, 48 h | AID 2288 | 340,000 tested, under 10 active; active = well fitted rising curve with a large enough effect; inconclusive = small, poorly fitted or top-dose-only effect; inactive = no such curve, though single readings can be large or run the other way;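 also: miR-21 action dims this reporter so a rising signal means less miR-21 action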
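HeLa cells stably expressing CMV-driven firefly luciferase with a downstream miR-21 binding sequence, endogenously expressing miR-21, were treated with titrations (up to about 40uM final) for 48 hours at 37 degree Celsius. Luciferase luminescence was read after lysis.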
ClpP mod: qHTS Assay for Activators of ClpP; ATP-dependent Clp protease proteolytic subunit (Bacillus subtilis (strain 168)), P80244; purified B. subtilis ClpP, FRET peptide cleavage, 20 min; Potency, µM (highest dose often 57.5 µM); 340,000 tested, 1.9% active; AID 651965, 2013; active means well fitted falling curve with a large enough effect; inconclusive means small, poorly fitted or top-dose-only effect; inactive means no such curve, though single readings can be large or run the other way; further: the source files actives as falling curves though it sought activators and does not explain the sign; nearly all actives have a fitted effect of over 65% in size
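Purified B. subtilis ClpP, 10 microg/mL final in Tris/HCl pH8 with KCl, BSA, glycerol and Tween-20, cleaved an Abz/nitrotyrosine-quenched decapeptide. Fluorescence (ex 320, em 430) was read at 0 and 20 min at room temperature. Delta was normalized to 5.8 microM ADEP and DMSO/no-enzyme controls.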
A549 tox: A549 cytotoxicity, counter-screen for Nrf2 inhibitors; Potency, µM (series often up to 46 µM), hits mostly inhibitors; A549 ARE-Fluc cells, CellTiter-Fluor viability, 18-24 h; 390,000 tested, 0.16% active
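A549 ARE-Fluc cells in 5% FBS OPTI-MEM, 5000 cells/well, rested 2 h then exposed to compounds in concentration-response for 18-24 h at 37 °C. Viability by CellTiter-Fluor fluorescence (Ex 405/Em 525) after 30 min; luciferase luminescence (BugLite, 15 min, RT) read afterwards.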
TCR activator: activates T cell receptor signaling; primary human leukocytes, anti-CD3, IL-2 HTRF, 48 h; Potency, µM (highest dose often 9.22 µM), hits mostly activators; 330,000 tested, under 10 active; AID 504894
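Compounds are tested in HTS on primary human leukocytes co-incubated with a-CD3 beads for 48 hr. IL-2 output is measured by time-resolved FRET.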
Nrf2 ARE act: activators of Nrf2 (ARE) signaling; AREc32 ARE-luciferase reporter (MCF7-derived line), luminescence, 24 h; 410,000 tested, 0.31% active; Potency, µM (series often up to 46.1 µM), actives largely listed as activators; further: nearly all actives have a fitted effect of over 65% in size
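ARE-driven firefly luciferase activity in AREc32 cells measured after a 24 hr compound exposure at 37 deg C, using Steady-Glo reagent and a 30 min room-temperature hold.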
Nrf2 block: Nrf2 pathway inhibition; A549 ARE-Fluc reporter, luciferase luminescence, 18-24 h; Potency, µM (titrated, usually from 46 µM), usual class: inhibitors; 360,000 tested, 2.1% active; further: nearly all actives have a fitted effect of over 60% in size
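A549 ARE_Fluc cells, 5000/well, 5% FBS OPTI-MEM; compounds in dose-response, 18-24 h at 37 °C/5% CO2; CellTiter-Fluor viability read (Ex 405/Em 525), then BugLite luciferase luminescence = Nrf2 activity.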
A number is an active result; – = inactive; ? = inconclusive; · = no result; [ ] = another dose, or the depositor's remark. Unless noted, the call rests on the fitted dose curve; in most records, active means well fitted curve in the direction sought with a large enough effect; inconclusive means small, poorly fitted or top-dose-only effect, or another doubt; inactive means no such curve, though single readings can be large; an effect the other way counts as inactive or inconclusive.

SMILES | miR-21 reporter | ClpP mod | A549 tox | TCR activator | Nrf2 ARE act | Nrf2 block
CCOc1ccc2c(c1)C(C)=CC(C)(C)N2C(=O)Nc1ccccc1F | – | 28µM | – | – | – | –
Cc1cccc2nc(C(=O)Nc3cccc(C(=O)NC4CC4)c3)cn12 | · | – | – | – | – | ?
Cc1cc2c(s1)c1cnn(Cc3ccccc3)c(=O)c1n2C | · | · | – | · | · | ?
CS(=O)(=O)N1CCCCC1CCN1CCCCC1 (configuration not stated) | · | 28µM | – | – | – | –
CC(=O)C1(C)C(=O)N(c2ccc(C)cc2)C(=O)N1c1ccc(C)cc1 (configuration not stated) | · | – | – | – | – | –
CN(C)c1ccc(CN(CC2CCCO2)C(=O)COc2ccccc2Cl)cc1 (configuration not stated) | – | – | – | · | – | –
COc1cc(/C=C2/SC(=S)N(Cc3ccccc3)C2=O)cc(Cl)c1O | – | – | ? | – | – | ?
COc1cc([N+](=O)[O-])cc(/C=C2/SC(=S)N(Cc3ccccc3)C2=O)c1O | – | – | – | – | – | 21µM
CCN1C(=O)/C(=C\C=C\c2ccccc2[N+](=O)[O-])SC1=S | – | · | ? | · | 5µM | –
COc1cc(/C=C2\SC(=O)N(Cc3ccc(F)cc3)C2=O)cc([N+](=O)[O-])c1O | – | · | ? | – | –[9.22 µM] | ?
O=C1/C(=C\c2cccc([N+](=O)[O-])c2O)SC(=S)N1Cc1ccccc1 | ? | – | ? | – | – | 16µM
COc1cc(/C=C2\SC(=O)N(Cc3ccc(Cl)cc3)C2=O)cc([N+](=O)[O-])c1O | – | · | 15µM | – | – | 15µM
CCOc1ccccc1C=C1SC(=S)N(CC)C1=O | · | · | – | – | – | –
COC(=O)c1[nH]c2ccccc2c1NC(=O)CN1CCN(c2cccc(OC)c2)C(C)C1 (configuration not stated) | – | ? | – | – | – | 26µM
CCOC(=O)c1[nH]c2ccc(OC)cc2c1NC(=O)CN1CCc2ccccc2C1 | – | 16µM | ? | – | – | ?
COC(=O)c1[nH]c2ccc(F)cc2c1NC(=O)CCN1CC(C)OC(C)C1 (configuration not stated) | – | 16µM | – | – | – | –
CCOC(=O)c1oc2ccccc2c1NC(=O)CN1CCN(C)CC1 | – | – | – | – | – | –
CCOC(=O)c1oc2ccc(OC)cc2c1NC(=O)CN1CCN(C)CC1 | – | 16µM | – | – | – | –
CCOC(=O)c1[nH]c2ccc(OC)cc2c1NC(=O)CN1CCN(c2ccccn2)CC1 | – | · | · | – | · | ·
O=C(Nc1ccccc1)c1cc(C2CCCCN2S(=O)(=O)c2ccccc2)on1 (configuration not stated) | · | – | · | · | – | ·
CN(C)c1ccc(C2CCc3ccccc3N2C(=O)c2ccccc2)cc1 (configuration not stated) | · | – | · | · | · | ·
COc1ccc(OC2(C)CCN(Cc3ccccc3OC(F)F)C2)cc1 (configuration not stated) | · | – | · | · | – | ·
CCOC(=O)c1[nH]c2ccc(OC)cc2c1NC(=O)C(C)N1CCC2(CC1)OCCO2 (configuration not stated) | – | · | · | · | · | ·
CCOC(=O)c1[nH]c2ccc(F)cc2c1NC(=O)C(C)N1CCc2cc(OC)c(OC)cc2C1 (configuration not stated) | – | 20µM | – | – | – | ?
CCOC(=O)c1[nH]c2ccc(OC)cc2c1NC(=O)CN1CCC2(CC1)OCCO2 | – | 14µM | – | – | – | –
CCOC(=O)c1[nH]c2ccc(OC)cc2c1NC(=O)CCN1CCSCC1 | – | 13µM | – | – | – | –
CCOC(=O)c1[nH]c2ccccc2c1NC(=O)CCN1CC(C)OC(C)C1 (configuration not stated) | – | – | – | · | – | –
CCOC(=O)c1[nH]c2ccccc2c1NC(=O)CCN1CCN(C(=O)OCC)CC1 | – | 22µM | – | – | – | –
CCCCOc1ccccc1C(=O)N(Cc1ccc(C)o1)C1CCS(=O)(=O)C1 (configuration not stated) | – | – | – | – | – | ?

From PubChem
